The values below come from patent US7906510B2, “Amide derivative and pharmaceutical composition containing the same” (Dainippon Sumito Pharma Co., Ltd., priority 2008, dated 2011).

Protein sequences, listed by entry. Tags and fused reporters are not part of them.
UniProt O70528, whole entry: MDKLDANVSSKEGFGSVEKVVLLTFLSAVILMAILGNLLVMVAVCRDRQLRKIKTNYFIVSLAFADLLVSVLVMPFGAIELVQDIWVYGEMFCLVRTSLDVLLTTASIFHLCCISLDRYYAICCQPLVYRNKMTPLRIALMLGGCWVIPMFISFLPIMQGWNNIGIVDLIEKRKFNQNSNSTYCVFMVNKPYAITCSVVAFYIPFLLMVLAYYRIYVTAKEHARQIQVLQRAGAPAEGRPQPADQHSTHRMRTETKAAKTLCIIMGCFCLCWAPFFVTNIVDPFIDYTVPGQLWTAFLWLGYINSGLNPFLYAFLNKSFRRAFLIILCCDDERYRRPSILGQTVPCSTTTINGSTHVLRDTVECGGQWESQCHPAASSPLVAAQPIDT

This test concerns the target 5-HT4 receptor (Cavia porcellus, UniProt O70528). The experiment in a line: Serotonin 4 (5-HT4) receptor binding assay. To be noted: inhibition of specific binding of 0.1 nM [3H]-GR113808, guinea pig striatum membrane preparations, 37° C., 30 minutes. On the procedure: 5-HT4 receptor binding assay and preparations of receptor membrane preparations were carried out according to a method of Grossman et al. [see British J. Pharmacol., (1993) 109, 618].
Slc-Hartley guinea pigs (body weight 300 to 400 g) were decapitated to remove brain rapidly, and striatum was isolated. To the obtained tissues were added fifteenfold of Hepes buffer (50 mM, pH7.4, 4° C.), and the mixture was homogenized by Teflon® homogenizer and centrifuged at 48,000×g (4° C.) for 15 minutes. To the resulting precipitate was added Hepes buffer (1 ml) to 30 mg by wet weight of tissues, and the mixture was suspended to give receptor membrane preparations.
0.1 nM [^3H]-GR113808 {chemical name: [1-[2-(methylsulfonylamino)ethyl]-4-piperidinyl]methyl 1-methylindole-3-carboxylate}, receptor membrane preparations, and Hepes buffer (50 mM, pH7.4, 4° C., 1 ml) containing test compounds or 30 μM serotonin were placed in an assay tube, and incubated at 37° C. for 30 minutes. On quenching the reaction, the mixture was rapidly filtered on whatman GF/B filter, which was presoaked in 0.1% polyethyleneimine for 1 hour, by using Brandel cell Harvester, and washed with ice-cooled 50 mM Tris-HCl (pH7.7, 4 ml) three times. To the filter after filtration was added ACS II scintillator, and then a radioactivity was determined by a liquid scintillation counter.
50% inhibition concentrations (IC50) were determined from inhibition rates of test compounds to specific bindings which were obtained by subtracting nonspecific bindings from total binding amounts of [^3H]-GR113808. […] The term “test compound” in Table means the following Example number.

The IC50 is the concentration at which inhibition is half-maximal. For `CCOc1cc(N)c(Cl)cc1C(=O)NCC1CN(CC2CCN(C(=O)/C=C/C3CC3)CC2)CCO1` (stereo not drawn), the IC50 (tested form: 1.5 fumarate) amounted to 5.54 nM.

Turning to `CCOc1cc(N)c(Cl)cc1C(=O)NCC1CN(CC2CCN(C(=O)/C=C/c3ccco3)CC2)CCO1` (stereo not drawn), under “tested form: 3/2 fumarate”, the IC50 was found to be 2.8 nM.

Compound `CCOc1cc(N)c(Cl)cc1C(=O)NCC1CN(CC2CCN(C(=O)/C=C/c3cccs3)CC2)CCO1` (stereo not drawn) displayed an IC50 of 3.53 nM.
